# According to publication PMC4500896, “Frog intestinal perfusion to evaluate drug permeability: application to p-gp and cyp3a4 substrates” (Frontiers in Pharmacology, 2015):
# Test system: frog intestine
# Test: Frog in situ single pass intestinal perfusion (SPIP), parallel-tube model
# Settings: inhibitor concentration not given
structure (smiles),measurement,setting,value
"CC(=O)N1CCN(c2ccc(OCC3COC(Cn4ccnc4)(c4ccc(Cl)cc4Cl)O3)cc2)CC1 (centres unmarked) [Ketoconazole, ketoconazole]",Change in effective permeability coefficient of losartan in presence of inhibitor,probe losartan,significant change in effective permeability coefficient was not observed
same,Change in effective permeability coefficient of midazolam in presence of inhibitor,probe midazolam,Moderate change
